For the experiment, the target named is T1, SARS-CoV-2 3CL-Pro (Severe acute respiratory syndrome coronavirus 2, UniProt P0DTD1).
T1 construct: SARS-CoV-2 main protease (3CL-Pro), also termed M-Pro
As to the kind of experiment: biochemical. The conditions noted are these: for inhibition at 20 µM: read-out: 3CL-Pro Inhibition [%] Primary Screen (20 µM).

Molecules are shown by their SMILES.

As a reminder, the inhibition is the change of the read-out against control, counted positive when it falls. With `S=C(S)N1CCCC1` [compound 35, N-pyrrolidin-1-ylcarbamodithioate], the inhibition at 20 µM was 101%.

For `Cc1ccc(-n2sc(=O)n(Cc3ccc(F)cc3)c2=O)cc1` [compound 53, 4-(4-Fluorobenzyl)-2-(4-methylphenyl)-1,2,4-thiadiazolidine-3,5-dione], the inhibition at 20 µM came out at 101%.

For `Cc1c(-c2cnccn2)ssc1=S` [compound 59, 4-Methyl-5-(2-pyrazinyl)-3H-1,2-dithiole-3-thione], the inhibition at 20 µM was 101%.

`O=C(O)c1ccccc1-c1c2cc(Br)c(=O)cc-2oc2[c]([Hg][OH])c(O)c(Br)cc12` [compound 62, [2,7-dibromo-9-(2-carboxyphenyl)-3-hydroxy-6-oxoxanthen-4-yl]mercury;hydrate]: the “3CL-Pro Inhibition [%] Primary Screen (20 µM)” value is recorded as 101%.

The values above are taken from patent EP4011367A1, “COMPOUNDS FOR USE IN THE TREATMENT OF COVID-19” (priority 2020, dated 2022).
